The values that follow are results of earlier work, collected in US20060252670A1, “Method of reducing drug-induced adverse side effects in a patient” (Intercept Pharmaceuticals Inc., priority 2004, published 2006).

Read-outs that look alike come from different tables or passages of the source.

The conditions of the data set: cited from earlier work.

Take insulin: the incidence of edema is listed as 4.7% (insulin alone (Raskin et al. 2001)) and 7.0% (insulin alone (Rubin et al. 1999)).
